From ChEMBL document CHEMBL4414592, “Aryl-fluorosulfate-based Lysine Covalent Pan-Inhibitors of Apoptosis Protein (IAP) Antagonists with Cellular Efficacy” (J Med Chem, 2019) come the findings set out here.

This series is described as follows: Stability in mouse plasma assessed as half life at 200 uM at 37 degC incubated up to 120 mins by mass spectrometry. In kind it is ADME, cell-free. Particulars: 2 h.

With `CN[C@@H](C)C(=O)N[C@H](C(=O)N1CCC[C@H]1C(=O)N[C@@H]1CCc2c(OS(=O)(=O)F)cccc21)C1CCCCC1`, the t1/2 was > 2 h.
